For assay [1], the system named is 4-hydroxyphenylpyruvate dioxygenase (HPPD), rat or human liver cytosol. Description: Release of 14CO2 from 4-hydroxyphenyl(1-14C)pyruvate, liver cytosol as enzyme source. In kind it is biochemical. Conditions: at concentrations of 100 nM or less; Compound or pharmaceutically acceptable salt. An excerpt:
Alternatively, an assay based on that described by Lindstedt and co-workers (Methods in Enzymology, 1987, 142, 139-142 and 143-148) and involves monitoring the effects of a test substance on the release of ^14 CO2 from 4-hydroxyphenyl(1-^14 C)pyruvate using rat or human liver cytosol as the enzyme source.

Assay [2] has as its system 4-hydroxyphenylpyruvate dioxygenase (HPPD), rat liver cytosol. Description: Oxygen consumption of rat liver enzyme with 4-hydroxyphenylpyruvate (oxygen electrode). Conditions: at concentrations of 100 nM or less; Compound or pharmaceutically acceptable salt. Type of assay: biochemical. The procedure: One such procedure involves monitoring the oxygen consumption of the rat liver enzyme in the presence of its substrate, 4-hydroxyphenylpyruvate. A typical assay according to this procedure uses an oxygen electrode with 0.2M sodium phosphate buffer at pH 7.2 (3.8 mL) in the reaction vessel at 37° C. Ascorbate (about 7 μM final concentration) and rat liver cytosol (105,000×g supernatant-about 0.2 mL, equivalent to 5 mg of protein) are then added. After equilibration to 37° C. for 3-5 minutes, the enzymatic reaction is started by the addition of the substrate, 4-hydroxyphenylpyruvate (about 200 μM final concentration). A test substance may be evaluated in this assay either by incubation with the enzyme for about 5 minutes prior to starting the reaction with substrate or by injecting the test active ingredient into the reaction vessel together with the substrate.

`O=C1CCCC(=O)C1C(=O)c1ccc(C(F)(F)F)cc1[N+](=O)[O-]` [the Compound, 2-(2-nitro-4-trifluoromethylbenzoyl)-1,3-cyclohexanedione]: in assay [1], the “reduction in release of 14CO2” value is listed as > 30%. Moreover, the “inhibition of oxygen uptake” value in assay [2] was > 30%.

These data come from patent publication US5550165A, “Pharmaceutical compositions for the treatment of hereditary tyosinemia type I” (Zeneca Limited, priority 1991, dated 1996).
